# The entries are a selection whose mix differs from that of the whole data set. Active and inactive are the calls of the source. Calls come from the whole dose curve; as a rule, active = well fitted inhibition curve with a large enough effect in the polarisation, with a control signal flat; inconclusive = small, poorly fitted or top-dose-only effect, or effect the other way, or a change in a side signal; inactive = no such curve, though single readings can be large or run the other way; the % refers to the polarisation.
# Amino acid sequences for entries named in this document (tags omitted).
# UniProt P11308, whole entry: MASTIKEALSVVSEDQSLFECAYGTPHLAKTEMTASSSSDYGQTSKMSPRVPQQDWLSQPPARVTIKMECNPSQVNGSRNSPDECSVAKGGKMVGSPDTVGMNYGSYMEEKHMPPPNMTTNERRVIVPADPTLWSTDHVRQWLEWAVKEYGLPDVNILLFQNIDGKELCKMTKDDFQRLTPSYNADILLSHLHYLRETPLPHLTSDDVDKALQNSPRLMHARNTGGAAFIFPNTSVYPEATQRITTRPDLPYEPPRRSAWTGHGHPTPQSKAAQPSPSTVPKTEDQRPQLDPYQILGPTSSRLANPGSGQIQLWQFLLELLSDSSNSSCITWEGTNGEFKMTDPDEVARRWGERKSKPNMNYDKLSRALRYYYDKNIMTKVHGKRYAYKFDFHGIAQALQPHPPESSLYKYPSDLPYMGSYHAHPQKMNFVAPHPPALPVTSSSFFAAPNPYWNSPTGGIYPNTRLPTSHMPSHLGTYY
# Target: Transcriptional regulator ERG (Homo sapiens) (UniProt P11308)
# Experiment: qHTS for Small Molecule Inhibitors of the ERG Ets/DNA interaction; note: % of control where 0% means no effect
# Conditions: fluorescence polarization, His-ERG Ets domain / labelled DNA; at 76.9 µM (top of the series)
# Procedure, shortened: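 His-tagged ERG Ets domain (1 uM in the protein solution; 300mM KCl, 50mM Tris-HCl, 1mM EDTA, 1mM DTT, pH 7.5) received compound, then a probe mix of 5 nM fluorescein-DNA and 100nM Texas-615-DNA. Fluorescence polarization was read for both dyes.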
row,SMILES,"FP activity, negative = inhibition"
1,CN1CCCCC1COC(=O)C1(O)c2ccccc2CCc2ccccc21 (centres undefined),inactive: 7.47%
2,CCCOc1ccc(NP(C)(=O)Oc2ccc(Cl)cc2)cc1 (centres undefined),inactive: -3.94%
3,CP(=O)(Nc1ccc(SC(F)(F)F)cc1)Oc1ccccc1 (centres undefined),inactive: 5.54%
4,CC1=C2N=C(C=C3N=C(C(C)=C4[N-][C@@](C)([C@@H]5N=C1[C@](C)(CCC(=O)NC[C@@H](C)OP(=O)([O-])O[C@H]1[C@@H](O)[C@@H](n6cnc7cc(C)c(C)cc76)O[C@@H]1CO)[C@H]5CC(N)=O)[C@@](C)(CC(N)=O)[C@@H]4CCC(N)=O)[C@@](C)(CC(N)=O)[C@@H]3CCC(N)=O)C(C)(C)[C@@H]2CCC(N)=O.[C-]#N.[Co+3],inactive: 1.84%
5,O=[N+]([O-])c1cc([N+](=O)[O-])c(Nc2nnnn2CCO)c([N+](=O)[O-])c1,inactive: -7.95%
6,O=[N+]([O-])c1cc([N+](=O)[O-])c(-c2cnn(-c3ccccc3)c2)c([N+](=O)[O-])c1,inactive: 1.87%
7,Cc1nc2ccc3ccccc3c2s1.O=[N+]([O-])c1cc([N+](=O)[O-])c(O)c([N+](=O)[O-])c1,inactive: 6.41%
8,O=[N+]([O-])c1cc([N+](=O)[O-])c(-n2nnc3ccccc32)c([N+](=O)[O-])c1,inactive: 8.76%
9,CP(=O)(Nc1ccc2c(c1)OCCO2)Oc1ccccc1 (centres undefined),inactive: 9.54%
10,Cc1ccccc1NP(C)(=O)Nc1ccccc1C,inactive: -3.18%
11,CP(=O)(Nc1ccc(SC(F)(F)F)cc1)Oc1ccc(F)cc1 (centres undefined),inactive: -17.5%
12,CCOP(C)(=S)SCC(=O)NC(C)(CC)C(=O)O (centres undefined),inactive: -0.283%
13,O=[N+]([O-])c1ccc(OP2(=O)COCCO2)cc1 (centres undefined),inactive: 2.69%
14,Cc1cc(-c2cccc3ccccc23)c(C)cn1.O=[N+]([O-])c1cc([N+](=O)[O-])c(O)c([N+](=O)[O-])c1,inactive: 4.07%
15,Cc1c(C(c2ccc3c(c2)OCO3)c2c(C)n(C)n(-c3ccccc3)c2=O)c(=O)n(-c2ccccc2)n1C.O=[N+]([O-])c1cc([N+](=O)[O-])c(O)c([N+](=O)[O-])c1,inactive: -7.46%
16,COc1ccc(OP(C)(=O)Nc2cccc(Br)c2)cc1 (centres undefined),inactive: -1.31%
17,CN(C)CCOC(=O)C(O)(c1ccccc1)C1CCCCC1 (centres undefined),inactive: 1.77%
18,COc1ccc(NP(C)(=O)Oc2ccccc2OC)cc1 (centres undefined),inactive: 0.439%
19,Cc1c([N+](=O)[O-])cc([N+](=O)[O-])c(Br)c1[N+](=O)[O-],inactive: -1.87%
20,CCN(CC)CCCOC(=O)C(O)(c1ccccc1)C1CCCCC1 (centres undefined),inactive: 2.65%
21,CCCCCOc1ccc(NP(C)(=O)Oc2ccc(Cl)cc2Cl)cc1 (centres undefined),inactive: 5.6%
22,CCOC(=O)c1ccc(NP(C)(=O)Oc2ccc(F)cc2)cc1 (centres undefined),inactive: -7.52%
23,COc1ccc(OP(C)(=O)Nc2ccc(SC(F)(F)F)cc2)cc1 (centres undefined),inactive: 0.293%
24,O=C(OCCN1CCN(CCOCc2ccccc2)CC1)C(O)(c1ccccc1)c1ccccc1,inactive: -2.44%
25,CC(C)c1ccc(OP(C)(=O)Nc2ccc(SC(F)(F)F)cc2)cc1 (centres undefined),inactive: 5.89%

row,SMILES,"FP activity, negative = inhibition"
1,Cc1c(NP(C)(=O)Oc2ccc(C(C)C)cc2)c(=O)n(-c2ccccc2)n1C (centres undefined),inactive: -7.99%
2,O=[N+]([O-])c1cc([N+](=O)[O-])c(Nc2ccccn2)c([N+](=O)[O-])c1,inactive: 2.98%
3,CP(=O)(Nc1ccccn1)Oc1ccccc1 (centres undefined),inactive: -0.991%
4,COc1ccccc1OP(C)(=O)Nc1ccc(C)cc1C (centres undefined),inactive: -5.94%
5,CCc1ccc(OP(C)(=O)O)cc1,inactive: -7.35%
6,COc1ccccc1OP(C)(=O)Nc1ccc(Br)cc1 (centres undefined),inactive: -3.14%
7,CP(=O)(Nc1ccc(Cl)cc1Cl)Oc1ccccc1 (centres undefined),inactive: 7.51%
8,CCCCCCCCCCCCCCCC1C[N+](C)(C)CCOP(C)(=O)O1 (centres undefined),inactive: 8.01%
9,CP(=O)(OCCOc1ccccc1)OCCOc1ccccc1,inactive: -6.95%
10,Cc1cc(C)cc(OP(C)(=O)Nc2cccc(C(F)(F)F)c2)c1 (centres undefined),inactive: 1.97%
11,COc1ccccc1OP(C)(=O)Nc1ccc(C)c(C)c1 (centres undefined),inactive: 2.51%
12,COc1ccc(OP(C)(=O)Nc2ccccc2Br)cc1 (centres undefined),inactive: -3.32%
13,Nc1ccc2c(ccc3cccnc32)n1.O=[N+]([O-])c1cc([N+](=O)[O-])c(O)c([N+](=O)[O-])c1,inactive: -0.164%
14,CCOC(=O)c1ccc(NP(C)(=O)Oc2ccc(Cl)cc2)cc1 (centres undefined),inactive: -7.12%
15,CP(=O)(OC12CC3CC(CC(C3)C1)C2)OC12CC3CC(CC(C3)C1)C2,inactive: -5.07%
16,COc1ccccc1OP(C)(=O)Nc1ccccc1Br (centres undefined),inactive: 24.2%
17,CC(C)(C)c1ccc(OP(C)(=O)O)cc1,inactive: 0.233%
18,CN(C)C(=O)c1c([N+](=O)[O-])cc([N+](=O)[O-])cc1[N+](=O)[O-],inactive: 7.87%
19,CCN(CC)CC(O)COC(=O)C(O)(c1ccccc1)C1CCCCC1 (centres undefined),inactive: 5.19%
20,COc1ccc(OP(C)(=O)Nc2ccc(Br)cc2)cc1 (centres undefined),inactive: -1.15%
21,COc1ccccc1OP(C)(=O)Nc1c(C)n(C)n(-c2ccccc2)c1=O (centres undefined),inactive: 3.25%
22,O=C(OCCCN1CCCC1)C(O)(c1ccccc1)C1CCCCC1 (centres undefined),inactive: 4.03%
23,CP(=O)(Oc1ccccc1)N1CCOC1=O (centres undefined),inactive: -22.7%
24,CCc1ccc(OP(C)(=O)Nc2cccnc2)cc1 (centres undefined),inactive: 5.42%

# Source: PubChem BioAssay AID624246 (National Center for Advancing Translational Sciences (NCATS), 2012)
